This assay concerns Ins2Akita mice. The settings on record: chronic treatment from 6 weeks to 12 months of age.

Each structure is given as a SMILES string.

Turning to `O=C(NC12CC3CC(CC(C3)C1)C2)N[C@H]1CC[C@H](Oc2ccc(C(=O)O)cc2)CC1` (relative stereo) [t-AUCB, trans-4-[4-(3-adamantan-1-ylureido)cyclohexyloxy]-benzoic acid], the “blood-retinal barrier integrity (FITC-BSA leakage)” value is on record as “maintained” and the “hallmarks of diabetic retinopathy (pericyte loss, pericyte migration, acellular capillaries)” value was “clearly attenuated”.

Source of the values: patent US20200317813A1, “TREATMENT AND DIAGNOSIS OF NON-PROLIFERATIVE DIABETIC RETINOPATHY” (Johann Wolfgang Goethe-Universitat Frankfurt am Main, priority 2016, published 2020).
